Results reported in US20070061084A1, “Method, system, and knowledge repository for identifying a secondary metabolite from a microorganism” (Ecopia BioSciences, Inc., priority 2002, published 2007).

By UniProt entry, the sequences of proteins in these tests, tags left out.
UniProt P29678, whole entry: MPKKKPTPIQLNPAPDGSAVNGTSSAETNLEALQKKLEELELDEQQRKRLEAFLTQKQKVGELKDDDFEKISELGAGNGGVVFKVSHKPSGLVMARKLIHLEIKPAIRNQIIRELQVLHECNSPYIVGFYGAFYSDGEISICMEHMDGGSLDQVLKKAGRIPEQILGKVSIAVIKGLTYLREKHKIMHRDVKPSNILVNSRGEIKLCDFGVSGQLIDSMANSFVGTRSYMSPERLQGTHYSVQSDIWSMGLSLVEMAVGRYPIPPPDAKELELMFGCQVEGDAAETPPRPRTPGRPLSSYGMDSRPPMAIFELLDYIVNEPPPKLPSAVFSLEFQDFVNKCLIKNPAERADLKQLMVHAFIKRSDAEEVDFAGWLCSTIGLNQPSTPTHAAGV

Legend:
[1] = target: T1, Protein Serine/Threonine Kinase MEK1 (Oryctolagus cuniculus, UniProt P29678); details: read-out: IC50 (historical); reference compound, historical value; cited from earlier work
[2] = target: T1, Protein Serine/Threonine Kinase MEK1; assay: MEK1 enzyme inhibition assay (Elisa quantitation of MBP-P); format: biochemical, rabbit; parameters: made in house; host or cells: E. coli

CN[C@@H]1C[C@H]2O[C@@](C)([C@@H]1OC)n1c3ccccc3c3c4c(c5c6ccccc6n2c5c31)C(=O)NC4 [Staurosporine]
IC50 [1]: 3.8 nM
IC50 [2]: 2.1 nM

Where two headings read alike, the source gives them in different places.
